The record followed here is PMC10108397 (ACS Medicinal Chemistry Letters, 2023).

In one data set the test system is phospho-AKT (Ser129). The data set is described as follows: Western blot analyses of pAKT and AKT in MDA-MB-231 cells. Particulars: 24 h exposure. It is filed as cell-based.
A further data set concerns MDA-MB-231 cells. Description: MDA-MB-231 cell viability assay. Particulars: 48 h, up to 10 μM.
For data set [1], the system named is AMO-1 and L363 cell lines. The data set is described as follows: cells. Particulars: Homo sapiens, 120 h, read-out: viability of the AMO-1 and L363 cells.

Take `CCC(=O)Nc1cc(Nc2cc(NC3CC3)n3ncc(C#N)c3n2)ccc1C` [SGC-CK2-1]: in the data set on phospho-AKT (Ser129), the AKT phosphorylation entry is listed as “dose-dependent inhibition of AKT phosphorylation” and the “total AKT expression” value is given as “no impact on total AKT expression”. Moreover, the cytotoxicity result in the data set with MDA-MB-231 cells was “neither compound 2 nor SGC-CK2-1 exhibited significant cytotoxicity”. Also, the viability (commonly the share of living cells, or the viability signal relative to a control) at 1 µM in data set [1] lay in the range of 9 to 22%.
